Results as given in paper PMC3068151, “Lithocholic Acid Is an Eph-ephrin Ligand Interfering with Eph-kinase Activation” (PLoS ONE, 2011).

By UniProt entry, the sequences of proteins in these tests, tags left out. Residues count along the entry.
UniProt P29317, 24-976: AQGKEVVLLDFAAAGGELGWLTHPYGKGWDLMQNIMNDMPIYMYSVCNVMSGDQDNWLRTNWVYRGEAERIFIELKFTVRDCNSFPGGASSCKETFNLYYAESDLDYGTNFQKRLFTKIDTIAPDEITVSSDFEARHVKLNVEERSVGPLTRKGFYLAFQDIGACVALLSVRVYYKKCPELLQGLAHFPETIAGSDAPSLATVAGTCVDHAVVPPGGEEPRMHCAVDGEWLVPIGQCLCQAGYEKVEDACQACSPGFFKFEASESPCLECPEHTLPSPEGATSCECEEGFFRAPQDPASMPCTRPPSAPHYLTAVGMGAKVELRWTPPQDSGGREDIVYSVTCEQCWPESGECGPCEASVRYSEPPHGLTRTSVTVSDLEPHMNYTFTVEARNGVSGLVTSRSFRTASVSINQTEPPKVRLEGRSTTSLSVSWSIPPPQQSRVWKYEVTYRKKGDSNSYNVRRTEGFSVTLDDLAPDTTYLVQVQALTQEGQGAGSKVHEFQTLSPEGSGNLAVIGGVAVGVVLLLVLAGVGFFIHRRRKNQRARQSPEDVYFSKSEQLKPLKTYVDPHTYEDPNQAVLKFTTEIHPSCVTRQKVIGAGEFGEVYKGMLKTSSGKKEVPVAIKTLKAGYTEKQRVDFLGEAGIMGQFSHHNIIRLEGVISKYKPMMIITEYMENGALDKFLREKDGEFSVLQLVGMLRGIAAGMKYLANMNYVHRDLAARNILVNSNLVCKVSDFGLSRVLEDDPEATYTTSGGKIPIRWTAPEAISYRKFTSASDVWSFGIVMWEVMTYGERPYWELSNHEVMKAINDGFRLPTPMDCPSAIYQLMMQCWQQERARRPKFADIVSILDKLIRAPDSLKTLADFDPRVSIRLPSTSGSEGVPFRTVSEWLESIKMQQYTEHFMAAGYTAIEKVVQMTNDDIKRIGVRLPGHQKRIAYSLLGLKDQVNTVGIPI

Experiments:
[1] = biological target: T1, EphA2 (Homo sapiens, UniProt P29317); assay: Phosphorylated-EphA2 sandwich ELISA in PC3 cell lysates; type: cell-based; design: their known ability to naturally express EphA2; endogenous in cells; host or cells: PC3 (A5); conditions: PC3 cells, 0.25 µg/ml ephrinA1-Fc; read-out: IC50 ephrinA1-Fc induced EphA2 phosphorylation
[2] = biological target: T1, EphA2; assay: Phosphorylated-EphA2 sandwich ELISA in HT29 cell lysates; type: cell-based; design: their known ability to naturally express EphA2; endogenous in cells; host or cells: HT29 (A6); conditions: HT29 cells, 0.25 µg/ml ephrinA1-Fc; read-out: IC50 ephrinA1-Fc induced EphA2 phosphorylation

C[C@H](CCC(=O)O)[C@H]1CC[C@H]2[C@@H]3CC[C@@H]4C[C@H](O)CC[C@]4(C)[C@H]3CC[C@]12C [LCA, lithocholic acid]
IC50 [1]: 48 µM | IC50 [2]: 66 µM
